# Test: Solubility of active agents
# Conditions: PBS at pH=7.2-7.4
# Description: The active agent may be any active agent suitable to treat the desired condition. […] Examples include, but are not limited to, acetazolamide, dorzolamide HCl, timolol maleate, and ethacrynic acid sodium salt.
substance,measurement,value
latanoprost arginine salt,solubility class,moderate solubility

# From patent publication US8765166B2, “Drug delivery devices for delivery of ocular therapeutic agents” (Aerie Pharmaceuticals, Inc., priority 2010, dated 2014)
